# Measured affinities in a library of Ab-95 light chain variants

All variants were tested on one target, the spike HR2 peptide PDVDLGDISGINAS (SARS-CoV-2).

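The library (AAYL52) carries one to three amino acid substitutions per variant, with no insertions or deletions. The assay is AlphaSeq: two haploid yeast populations carry antibody and antigen on their surface. Mating (16 h, 30 °C) was followed by selection of diploids and sequencing of their barcodes. Each replicate has its own calibration line, from reference interactions of the BCL2 family. Each pool was mated in three replicate cultures.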

The variants keep the heavy chain, the linker and the frameworks of Ab-95 (scFv order VH, a 15-residue (Gly4Ser)3 linker, VL).
VH: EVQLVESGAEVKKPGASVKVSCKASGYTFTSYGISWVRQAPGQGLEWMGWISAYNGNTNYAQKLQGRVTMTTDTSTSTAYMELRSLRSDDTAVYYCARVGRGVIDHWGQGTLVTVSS
VL: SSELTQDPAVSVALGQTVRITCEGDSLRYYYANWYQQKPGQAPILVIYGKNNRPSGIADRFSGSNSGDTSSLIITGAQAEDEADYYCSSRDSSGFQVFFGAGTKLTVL

Variants are written as CDR1, CDR2 and CDR3 of the light chain (limits as in the source). Parent: EGDSLRYYYAN, GKNNRPS, SSRDSSGFQVF. Each Kd is an estimate from the mating assay, the geometric mean of the replicates in which the pair was seen; lower is stronger. "not detected" marks a missing value. The strain was present, yet no cells mated with the target were sequenced in any replicate, which points to weak or no binding. In this assay the parent's reference entry averaged 200 nM; its copy inside this library read 180 nM. Empty control strains, which show no peptide, gave a signal in 28% of pairings with library AAYL52; the median was 8.2 µM and 95% of these signals were weaker than 800 nM. No background was subtracted.

CDR-L1	CDR-L2	CDR-L3	Kd	replicates with signal
TGDSLRYYYNN	GKNNRPS	SSKDSSGFQVF	710 nM	3/3
EGDSLRYYYAN	GVNNRPS	SSRYSSIFQVF	5.5 µM	1/3
EGDSLRYYYAN	GKNNRPH	SSRDSSGFAVK	40 µM	1/3
EGDSLRYYYAN	GKNNRFS	SSIDSSGFQGF	1.8 µM	2/3
EGDVLRYYYAN	GKNNRPS	SWRDSSGFQVP	3.5 µM	2/3
ELDSIRYYYAE	GKNNRPS	SSRDSSGFQVF	19 µM	2/3
EGDSLVYYYAN	GKNNRPS	SSYDSSMFQVF	4.9 µM	1/3
EGDSLRYYYIN	GKNNHPS	SSRDSAGFQVF	170 µM	1/3
EGDSLRYYYAN	GKVGRPS	SSRDSSGQQVF	3.4 µM	3/3
HGDSLRYYYAN	GKNNRPS	CSRDSSGFQVF	990 nM	3/3
EGNSLRMYYAN	HKNNRPS	SSRDSSGFQVF	not detected	0/3
EGMSLRYYYAN	GKNIRPS	SSRDSSGFQVE	90 nM	3/3
ENDSLRYYYAN	GKNNRPS	SNRDSSGFQVF	250 nM	3/3
EGDCLRLYYAN	GTNNRPS	SSRDSSGFQVF	17 µM	1/3
EGDSLRYYYAN	GKNNRPE	SFRDSSGSQVF	120 nM	3/3
EGDSLRYYYAN	GKNNRPS	SSRDWSGFWQF	27 µM	3/3
EGDSLNYYYAN	LKNNRPS	PSRDSSGFQVF	1.9 µM	1/3
EEDSLRYYYAN	NVNNRPS	SSRDSSGFQVF	not detected	0/3
EGDSLRYYYWN	GKNVLPS	SSRDSSGFQVF	17 µM	3/3
EGDSLRYYGAN	KKNNRPS	SSRDSSGFQVF	1.9 µM	3/3
EGDSLRYYYAN	GKNNRPS	SSVDSSMRQVF	not detected	0/3
ENDSLRYYYTN	GKTNRPS	SSRDSSGFQVF	2.3 µM	3/3
EDDSLRYNYAN	GKNNRPS	SSRDSSCFQVF	27 nM	3/3
EGDSLRYYYVN	GKNNRWS	SSVDSSGFQVF	2.1 µM	3/3
EGDSLRYYYAN	GHNNRPS	SSRDSSIFQVF	1.1 µM	2/3
REDSLRYYYAN	GKNNRPQ	SSRDSSGFQVF	160 µM	1/3
EGDSLRYYYAC	GKNNRPS	SSRDSSGFAVM	42 µM	2/3
FGDVLRYYYAN	GKNNRPS	SSMDSSGFQVF	5.5 µM	1/3
EGNCLRYYYAN	GKNNRPF	SSRDSSGFQVF	43 µM	2/3
EGASLRYYYAN	LKNNRPR	SSRDSSGFQVF	39 µM	2/3
EGDSLRYKYAN	GKNLRPS	SRRDSSGFQVF	190 nM	3/3
EGRSLRYYYAN	GKNNRPS	SSRRPSGFQVF	390 nM	3/3
EGDSLRYYYAM	GRNNRPS	SSRDSWGFQVF	not detected	0/3
EGDSLRYPYAN	GKQNRPS	SSRDSSLFQVF	280 nM	3/3
EGDSLRYFYAN	GKNNRPS	SSRVSSGFQVH	9.7 µM	2/3
EGDSLRYYYAN	GYGNRPS	SSRDSSGFQAF	9.2 µM	3/3
EWDSLRYYYAN	GKNGRPS	SSRDSSGFQKF	650 nM	1/3
EIDSLRYYYAN	GKNNRPS	ASRDSSGFQVM	2.6 µM	2/3
EYDSLRHYYAN	GKNERPS	SSRDSSGFQVF	220 nM	3/3
EGDSLRYNYAN	GKNNRPS	SSRDSSGPLVF	2.9 nM	3/3
EGDSLRYYYWN	GKNNKPS	SSRDSSGFQVM	1.6 µM	2/3
GYDSLRYYYAN	GKNNRPS	SSRDSSGFQPF	9.9 µM	2/3
EGDSLRYYYAN	GKNNRPM	SSRDSSGWQVF	730 nM	3/3
ETDSWRTYYAN	GKNNRPS	SSRDSSGFQVF	24 µM	2/3
EGDSLRYYYWN	GKNNRPS	NSRDSSGRQVF	not detected	0/3
EGDSLRYYYAN	GKNTRHS	SSHDSSGFQVF	3.8 µM	2/3
ESDSLRYYTAN	GKFNRPS	SSRDSSGFQVF	40 µM	3/3
SGDSLRYYVAN	GKNNRPS	SSRDSSGFQQF	1.3 µM	3/3
TGDSLRYYYAN	GKTNRTS	SSRDSSGFQVF	2.1 µM	3/3
DGDSLRYYYAN	LKVNRPS	SSRDSSGFQVF	3.2 µM	2/3
EGDSARYYYAN	GKNNSPH	SSRDSSGFQVF	15 µM	1/3
EGISLRYYYKN	HKNNRPS	SSRDSSGFQVF	19 µM	1/3
EGDSLRYYYAN	GKKNRPS	SSRDSSKFQEF	not detected	0/3
EGDSLRYYMAN	GKNNRPS	GSRDSSGFTVF	33 nM	3/3
EGDSLRGYYAN	GKNNRPL	SSRDSSGFQVF	15 nM	3/3

The first 8 entries again:

CDR-L1	CDR-L2	CDR-L3	Kd	replicates with signal
TGDSLRYYYNN	GKNNRPS	SSKDSSGFQVF	710 nM	3/3
EGDSLRYYYAN	GVNNRPS	SSRYSSIFQVF	5.5 µM	1/3
EGDSLRYYYAN	GKNNRPH	SSRDSSGFAVK	40 µM	1/3
EGDSLRYYYAN	GKNNRFS	SSIDSSGFQGF	1.8 µM	2/3
EGDVLRYYYAN	GKNNRPS	SWRDSSGFQVP	3.5 µM	2/3
ELDSIRYYYAE	GKNNRPS	SSRDSSGFQVF	19 µM	2/3
EGDSLVYYYAN	GKNNRPS	SSYDSSMFQVF	4.9 µM	1/3
EGDSLRYYYIN	GKNNHPS	SSRDSAGFQVF	170 µM	1/3

Source: Engelhart et al. 2022 (doi:10.1038/s41597-022-01779-4), MIT Lincoln Laboratory and A-Alpha Bio; data file from the FLAb repository.